Test results as given in publication PMC11109483 (Life Science Alliance, 2024).

Biological target: T1, mono-Ub (human, UniProt P0CG48 1-76, Maleimide-PEG2-Biotin on the cysteine of the C-terminal linker)
T1 construct: ubiquitin (hUb), human; construct Ub-cys-6H in pETM60; Bait of the pulldowns; The same name is used for the SPR analyte; also called Ub-cys-6H; 6xHis-cys-Ub; source: E. coli BL21 Rosetta, purified (TALON, SEC); biotin conjugated by maleimide-cysteine reaction
Experiment: SPR; Biacore T200, 25°C; biotinylated HIP1(22-309) immobilised on Sensor Chip NA (900 RU); Ub chains as analytes 60 nM to 250 uM, multicycle; 50 mM Hepes pH 7.5, 300 mM NaCl, 0.5 mM TCEP, 0.05% Tween-20, 1% BSA; steady-state affinity model
Conditions: both partners purified

- Kd: 197 µM
B1: biotinylated HIP1 (22-309) (domain or fragment, UniProt O00291 22-309, looked up)
chain: RGVGAGLEAAERESFERTQTVSINKAINTQEVAVKEKHARTCILGTHHEKGAQTFWSVVNRLPLSSNAVLCWKFCHVFHKLLRDGHPNVLKDSLRYRNELSDMSRMWGHLSEGYGQLCSIYLKLLRTKMEYHTKNPRFPGNLQMSDRQLDEAGESDVNNFFQLTVEMFDYLECELNLFQTVFNSLDMSRSVSVTAAGQCRLAPLIQVILDCSHLYDYTVKLLFKLHSCLPADTLQGHRDRFMEQFTKLKDLFYRSSNLQYFKRLIQIPQLPENPPNFLRASALSEHIS
modifications: biotin on the Avi-tag (BirA)
notes: Vector pET-15b-His10-TEV-Avi-tag; source: E. coli BL21(DE3), purified (IMAC, TEV digestion, reverse IMAC, SEC), biotinylated in vitro with BirA
